Assay results as given in patent EP2608671B1, “COMPOUNDS FOR TREATMENT OF CANCER” (Gtx, Inc., priority 2010, dated 2012).

Assays:
[1] = tested on: PC-3 prostate tumor xenograft; experiment: In vivo antitumor efficacy, PC-3 xenograft; design: species or system mouse; conditions: PC-3 tumors, 10 mg/kg i.v.
[2] = rat, PO; 10 mg/kg (2r: 4 mg/kg)

CC(=O)O[C@@]12CO[C@@H]1C[C@H](O)[C@@]1(C)C(=O)[C@H](O)C3=C(C)[C@@H](OC(=O)[C@H](O)[C@@H](NC(=O)OC(C)(C)C)c4ccccc4)C[C@@](O)([C@@H](OC(=O)c4ccccc4)[C@H]21)C3(C)C [Docetaxel, reference compound]
tumor growth inhibition (TGI) [1]: 84%

COc1cc(C(=O)c2csc(-c3ccccc3)n2)cc(OC)c1OC [1h, (2-Phenyl-thiazol-4-yl)-(3,4,5-trimethoxy-phenyl)-methanone]
Cmax [2]: 212 ng/mL
